Test results: patent publication US20040072834A1, “Crystal forms of quinoxaline-2-carboxylic acid [4-carbamoyl-1-(3-fluorobenzyl)-2,7-dihydroxy-7-methyl-octyl]-amide” (Pfizer Inc., priority 2002, published 2004)

Chains of the proteins cited; added tags and fusions are not shown. Lines headed by an entry give the natural chain unless they say otherwise; changes in a name come on top.
UniProt P32246: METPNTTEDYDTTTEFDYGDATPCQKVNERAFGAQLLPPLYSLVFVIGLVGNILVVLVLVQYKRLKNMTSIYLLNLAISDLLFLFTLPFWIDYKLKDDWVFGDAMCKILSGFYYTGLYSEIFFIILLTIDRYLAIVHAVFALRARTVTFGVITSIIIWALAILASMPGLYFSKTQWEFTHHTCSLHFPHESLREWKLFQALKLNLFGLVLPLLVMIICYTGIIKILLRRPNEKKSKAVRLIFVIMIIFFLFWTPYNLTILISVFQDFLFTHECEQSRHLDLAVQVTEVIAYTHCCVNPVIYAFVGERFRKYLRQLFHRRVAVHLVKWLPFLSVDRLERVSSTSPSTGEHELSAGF

Molecular target: CCR1 (Homo sapiens, UniProt P32246)
Test: cell-based

## CC(C)(O)CC[C@H](C[C@H](O)[C@H](Cc1cccc(F)c1)NC(=O)c1cnc2ccccc2n1)C(N)=O [Ia-3, Quinoxaline-2-carboxylic acid [4-carbamoyl-1-(3-fluorobenzyl)-2,7-dihydroxy-7-methyl-octyl]-amide]
  IC50: < 25 µM
